# Data published in patent US20250243243A1, “DISRUPTION OF SONIC HEDGEHOG-SURF4 INTERACTION FOR CANCER TREATMENT” (The Hong Kong University of Science and Technology, priority 2022, published 2025).
# Key:
# ShhN^1-198-HA (mouse) [1] = biological target: ShhN^1-198-HA (mouse) (UniProt Q62226); assay: anti-HA immunoprecipitation from HEK293T lysate, label-free quantitative mass spectrometry; ratio of the ShhN-HA group to the IGF2-HA group
# IGF2-HA (human) = IGF2-HA (human) (UniProt P01344); assay: anti-HA immunoprecipitation from HEK293T lysate, label-free quantitative mass spectrometry; 2 unique peptides; untransfected Control Group printed 156239.4744
# ShhN^1-198-HA (mouse) [2] = biological target: ShhN^1-198-HA (mouse) (UniProt Q62226); assay: as above
substance,measurement,setting,value
RPS15A (from UniProt P62244),Abundance Ratio ShhN:IGF2,ShhN^1-198-HA (mouse) [1],4.79
same,abundance in The IGF2 Group,IGF2-HA (human),61200
same,abundance in The ShhN Group,ShhN^1-198-HA (mouse) [2],293000
